Measurements as given in paper PMC6684226, “Neuropeptide B mediates female sexual receptivity in medaka fish, acting in a female-specific but reversible manner” (eLife, 2019).

Assays:
Type in all cases: in vivo, medaka (Oryzias latipes)
[1] = tested on: npbb expression in Vs/Vp and PMm/PMg/PPp; assay: npbb expression in brain nuclei of gonad-intact medaka after immersion drug treatment (in situ hybridization); conditions: testis-intact adult males, 100 ng/ml E2 by immersion, 9 days; n = 5
Description: (§1) DNA fragments of 645 bp, 647 bp, and 1520 bp corresponding to nucleotides 1–645 of the medaka npba cDNA (GenBank accession number NM_001308979), 1–647 of the medaka npbb EST clone of National BioResource Project (NBRP) Medaka (http://www.shigen.nig.ac.jp/medaka/) (clone ID: olova57o22), and 1699–3218 of the medaka npbwr2 cDNA (deposited in DDBJ/EMBL/GenBank with accession number LC375958), respectively, were PCR-amplified and subcloned into the pGEM-Teasy vector (Promega, Madison, WI). The resultant constructs were used to generate digoxigenin (DIG)-labeled cRNA probes for npba, npbb, and npbwr2 by using the DIG RNA Labeling Mix and T7 RNA polymerase (Roche Diagnostics). […] Color development was allowed to proceed overnight or was stopped after 2–3 hr (for quantification of npba expression in Vs/Vp) or 15–30 min (for quantification of npba expression in PMm/PMg) to avoid saturation. […]
(§2) To obtain quantitative data, the number of npba/npbb-expressing neurons in each brain nucleus or each brain/spinal cord region was counted manually. In some analyses, the resulting sections were photographed and converted to black and white binary images by thresholding using Adobe Photoshop (Adobe Systems, San Jose, CA), and the total area of npba/npbb expression was calculated by using ImageJ (http://rsbweb.nih.gov/ij/). […]

[2] = tested on: npba expression in Vs/Vp and PMm/PMg; assay: npba expression in brain nuclei of gonad-intact medaka after immersion drug treatment (in situ hybridization); conditions: testis-intact adult males, 100 ng/ml E2 by immersion, n = 5
Description: as §1, §2

[3] = tested on: npbb expression in Vs/Vp and PMm/PMg/PPp; assay: npbb expression in brain nuclei of gonadectomized medaka after sex steroid supplementation (in situ hybridization); conditions: ovariectomized adult females, 100 ng/ml E2, 6 days; n = 5; p=0.0091 for Vs/Vp, 0.0173 for PMm/PMg
Description: as §1, §2

[4] = tested on: npba expression in Vs/Vp and PMm/PMg; assay: npba expression in brain nuclei of gonadectomized medaka after sex steroid supplementation (in situ hybridization); conditions: 100 ng/ml E2 by immersion, 6 days, n = 5 per group, p=0.0013 for Vs/Vp and 0.0006 for PMm/PMg
Description: as §1, §2

For `C[C@]12CC[C@@H]3c4ccc(O)cc4CC[C@H]3[C@@H]1CC[C@@H]2O` [E2, estradiol-17β], the “npbb expression in Vs/Vp or PMm/PMg/PPp” value [1] was “no clear changes”, the “number of npba-expressing neurons in Vs/Vp and PMm/PMg” value ([2]; Vs/Vp p<0.0001 on days 2, 5, and 9, PMm/PMg p<0.0001 on day 9) was “steadily increased over time during treatment” and the “total area of npba expression in Vs/Vp and PMm/PMg” value ([2]; Vs/Vp p=0.0013 and <0.0001 on days 5 and 9, PMm/PMg p=0.0023 on day 9) was “steadily increased over time during treatment”. For the same compound, the “npbb expression in Vs/Vp and PMm/PMg after ovariectomy” value [3] was “restored by treatment with E2” and the “npba expression in Vs/Vp and PMm/PMg of castrated males” value [4] was “induced npba expression in both Vs/Vp and PMm/PMg”.
